In US20220143081A1, “SYSTEM AND METHOD OF TREATING INFLAMMATORY LUNG DISEASES” (priority 2020, published 2022):
This is a selection: effects in other tests are not listed, and their absence says nothing.

System: hematopoietic stem cells
Details: mice receiving sublethal doses of irradiation

**Q.** For tetrachlorodecaoxide, which “regeneration of hematopoietic stem cells” value is on record?
**A.** stimulated regeneration of hematopoietic stem cells
